# Binding of CDR-mutated scFvs to a peptide of the spike HR2 region

Source: Engelhart et al. 2022 (doi:10.1038/s41597-022-01779-4), MIT Lincoln Laboratory and A-Alpha Bio; data file from the FLAb repository.

Antigen: PDVDLGDISGINAS, a 14-residue peptide of the SARS-CoV-2 spike HR2 region.

The variants keep the heavy chain, the linker and the frameworks of Ab-95 (scFv order VH, a 15-residue (Gly4Ser)3 linker, VL).
VH: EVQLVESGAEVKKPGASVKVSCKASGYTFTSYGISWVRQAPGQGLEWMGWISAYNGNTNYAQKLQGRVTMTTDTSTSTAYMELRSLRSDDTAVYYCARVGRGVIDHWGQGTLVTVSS
VL: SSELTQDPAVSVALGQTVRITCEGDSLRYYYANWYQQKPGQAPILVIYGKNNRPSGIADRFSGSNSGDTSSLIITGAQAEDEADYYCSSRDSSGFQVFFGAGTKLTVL

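Library AAYL52 holds single substitutions and randomly drawn double and triple substitutions in the CDRs. The assay is AlphaSeq: two haploid yeast populations carry antibody and antigen on their surface. After mating in shaken culture at 30 °C for 16 h, diploids were selected and their barcode pairs sequenced. Each replicate has its own calibration line, from reference interactions of the BCL2 family. Mating was done three times.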

Changes read parent residue, position, new residue, counted from the first residue of the VL shown. The read-out is the apparent dissociation constant on a log10 scale (nM): the lower, the stronger. The mean shown is taken over the replicates in which the pair was detected. "n.d." marks a missing value. The strain was present, yet no cells mated with the target were sequenced in that replicate, which points to weak or no binding. Three control strains display no target. For library AAYL52, 28% of the pairings with them gave a signal, with a median of 3.91 and one signal in twenty below 2.90, so weak values seen in few replicates may be background. Also given: how often the same scFv was detected with the empty control strains, with their mean in brackets.

| # | changes | replicates, log10 nM | log10 Kd (nM), mean | empty controls |
|---|---|---|---|---|
| 1 | G24D Y29P S92V | n.d. 2.78 n.d. | 2.78 | 1 of 9 (3.17) |
| 2 | L27V S55A D91L | n.d. n.d. n.d. | n.d. | 0 of 9 |
| 3 | D25Q G49D S89M | 3.27 4.28 2.89 | 3.48 | 4 of 9 (3.74) |
| 4 | R90K S93L G94A | 2.82 3.19 2.79 | 2.93 | 3 of 9 (4.88) |
| 5 | G24K S55V S93Y | 3.55 4.17 n.d. | 3.86 | 3 of 9 (3.70) |
| 6 | S26A N51C V97N | 4.55 n.d. n.d. | 4.55 | 1 of 9 (4.60) |
| 7 | L27Q A32M V97E | 3.09 3.87 3.55 | 3.50 | 1 of 9 (2.50) |
| 8 | Y31R N33T G94K | 3.43 n.d. n.d. | 3.43 | 5 of 9 (4.34) |
| 9 | E23H Y30A S89C | 0.92 0.85 0.19 | 0.65 | 8 of 9 (3.92) |
| 10 | E23T N52G F95C | 2.45 2.26 2.35 | 2.35 | 4 of 9 (4.22) |
| 11 | N51K F95I F98A | 2.71 n.d. 1.77 | 2.24 | 2 of 9 (3.40) |
| 12 | Y31P N51G S89T | 2.20 1.94 1.60 | 1.91 | 3 of 9 (4.07) |
| 13 | Y31V S89E S92L | 3.13 2.30 2.59 | 2.67 | 3 of 9 (4.49) |
| 14 | S92W S93D | 3.07 2.56 2.72 | 2.78 | 4 of 9 (4.33) |
| 15 | N52H D91A G94R | n.d. n.d. 4.54 | 4.54 | 2 of 9 (4.34) |
| 16 | Y29F G94T F98S | 2.35 2.38 2.14 | 2.29 | 3 of 9 (3.65) |
| 17 | Y30N A32T D91C | n.d. 3.63 n.d. | 3.63 | 4 of 9 (3.21) |
| 18 | Y29S Y30W S93A | 2.25 2.23 2.15 | 2.21 | 5 of 9 (4.05) |
| 19 | G24R N52R R90I | n.d. n.d. n.d. | n.d. | 3 of 9 (4.01) |
| 20 | Y29A Y30K | 1.58 1.26 0.90 | 1.25 | 2 of 9 (4.46) |
| 21 | L27P R90L F98N | n.d. n.d. n.d. | n.d. | 1 of 9 (3.91) |
| 22 | G24L N51H S93K | n.d. 4.36 n.d. | 4.36 | 7 of 9 (3.85) |
| 23 | N51P S55Q F98E | 4.77 3.90 n.d. | 4.33 | 0 of 9 |
| 24 | S26R A32N V97M | 3.04 n.d. 3.28 | 3.16 | 1 of 9 (3.16) |
| 25 | K50L N52Q F98T | 3.39 3.45 n.d. | 3.42 | 5 of 9 (3.84) |
| 26 | A32P P54C F98N | n.d. n.d. n.d. | n.d. | 0 of 9 |
| 27 | L27I S89M S92L | n.d. 4.24 n.d. | 4.24 | 1 of 9 (3.64) |
| 28 | G24F N51C F95D | 4.76 4.00 n.d. | 4.38 | 2 of 9 (4.02) |
| 29 | E23Y Y29F S93L | 3.26 4.05 1.81 | 3.04 | 5 of 9 (3.50) |
| 30 | D25F N51V S55K | n.d. n.d. n.d. | n.d. | 3 of 9 (3.98) |
| 31 | S92H G94Q F95H | 3.09 3.32 3.99 | 3.47 | 5 of 9 (4.15) |
| 32 | A32F S89F S92H | n.d. n.d. n.d. | n.d. | 3 of 9 (4.31) |
| 33 | N33P G49R V97F | 4.57 n.d. n.d. | 4.57 | 1 of 9 (4.55) |
| 34 | Y31E K50S S92E | 1.32 1.10 0.56 | 0.99 | 5 of 9 (4.37) |
| 35 | D25H F98V | 4.06 4.19 n.d. | 4.13 | 2 of 9 (3.99) |
| 36 | G24W Q96C | 2.82 3.39 n.d. | 3.10 | 3 of 9 (3.59) |
| 37 | N51F D91I S93V | 2.96 n.d. 3.38 | 3.17 | 3 of 9 (3.85) |
| 38 | R28N S92V V97F | 2.70 2.59 2.09 | 2.46 | 3 of 9 (3.87) |
| 39 | G24R D25Y R90D | 3.64 n.d. 4.69 | 4.16 | 3 of 9 (4.07) |

The first 5 variants above that were never detected:

{"changes": "L27V S55A D91L", "replicates, log10 nM": "n.d. n.d. n.d.", "log10 Kd (nM), mean": "n.d.", "empty controls": "0 of 9"}
{"changes": "G24R N52R R90I", "replicates, log10 nM": "n.d. n.d. n.d.", "log10 Kd (nM), mean": "n.d.", "empty controls": "3 of 9 (4.01)"}
{"changes": "L27P R90L F98N", "replicates, log10 nM": "n.d. n.d. n.d.", "log10 Kd (nM), mean": "n.d.", "empty controls": "1 of 9 (3.91)"}
{"changes": "A32P P54C F98N", "replicates, log10 nM": "n.d. n.d. n.d.", "log10 Kd (nM), mean": "n.d.", "empty controls": "0 of 9"}
{"changes": "D25F N51V S55K", "replicates, log10 nM": "n.d. n.d. n.d.", "log10 Kd (nM), mean": "n.d.", "empty controls": "3 of 9 (3.98)"}